Values of other authors in US20130333059A1, “HOX COMPOSITIONS AND METHODS” (THE JOHNS HOPKINS UNIVERSITY, priority 2006, published 2013).

Conditions: cited from earlier work

COc1cc2ncnc(Nc3ccc(F)c(Cl)c3)c2cc1OCCCN1CCOCC1 [gefitinib]
response to Iressa, ER-negative breast cancer patient with high levels of EGFR expression (preliminary data from two independent clinical trials): poor response | response to Iressa, ER-positive patients with a low to medium level expression of EGFR (two thirds of ER-positive patients, two independent clinical trials): good response
